Reference: patent publication US8642265B2, “Compositions and methods for the detection of topoisomerase II complexes with DNA” (The Children's Hospital of Philadelphia, priority 2004, dated 2014)

The chains behind the UniProt entries cited, without tags or fusion partners. Where a name states a change or a piece, a line headed by the entry shows the natural chain unless it says otherwise.
UniProt P11388: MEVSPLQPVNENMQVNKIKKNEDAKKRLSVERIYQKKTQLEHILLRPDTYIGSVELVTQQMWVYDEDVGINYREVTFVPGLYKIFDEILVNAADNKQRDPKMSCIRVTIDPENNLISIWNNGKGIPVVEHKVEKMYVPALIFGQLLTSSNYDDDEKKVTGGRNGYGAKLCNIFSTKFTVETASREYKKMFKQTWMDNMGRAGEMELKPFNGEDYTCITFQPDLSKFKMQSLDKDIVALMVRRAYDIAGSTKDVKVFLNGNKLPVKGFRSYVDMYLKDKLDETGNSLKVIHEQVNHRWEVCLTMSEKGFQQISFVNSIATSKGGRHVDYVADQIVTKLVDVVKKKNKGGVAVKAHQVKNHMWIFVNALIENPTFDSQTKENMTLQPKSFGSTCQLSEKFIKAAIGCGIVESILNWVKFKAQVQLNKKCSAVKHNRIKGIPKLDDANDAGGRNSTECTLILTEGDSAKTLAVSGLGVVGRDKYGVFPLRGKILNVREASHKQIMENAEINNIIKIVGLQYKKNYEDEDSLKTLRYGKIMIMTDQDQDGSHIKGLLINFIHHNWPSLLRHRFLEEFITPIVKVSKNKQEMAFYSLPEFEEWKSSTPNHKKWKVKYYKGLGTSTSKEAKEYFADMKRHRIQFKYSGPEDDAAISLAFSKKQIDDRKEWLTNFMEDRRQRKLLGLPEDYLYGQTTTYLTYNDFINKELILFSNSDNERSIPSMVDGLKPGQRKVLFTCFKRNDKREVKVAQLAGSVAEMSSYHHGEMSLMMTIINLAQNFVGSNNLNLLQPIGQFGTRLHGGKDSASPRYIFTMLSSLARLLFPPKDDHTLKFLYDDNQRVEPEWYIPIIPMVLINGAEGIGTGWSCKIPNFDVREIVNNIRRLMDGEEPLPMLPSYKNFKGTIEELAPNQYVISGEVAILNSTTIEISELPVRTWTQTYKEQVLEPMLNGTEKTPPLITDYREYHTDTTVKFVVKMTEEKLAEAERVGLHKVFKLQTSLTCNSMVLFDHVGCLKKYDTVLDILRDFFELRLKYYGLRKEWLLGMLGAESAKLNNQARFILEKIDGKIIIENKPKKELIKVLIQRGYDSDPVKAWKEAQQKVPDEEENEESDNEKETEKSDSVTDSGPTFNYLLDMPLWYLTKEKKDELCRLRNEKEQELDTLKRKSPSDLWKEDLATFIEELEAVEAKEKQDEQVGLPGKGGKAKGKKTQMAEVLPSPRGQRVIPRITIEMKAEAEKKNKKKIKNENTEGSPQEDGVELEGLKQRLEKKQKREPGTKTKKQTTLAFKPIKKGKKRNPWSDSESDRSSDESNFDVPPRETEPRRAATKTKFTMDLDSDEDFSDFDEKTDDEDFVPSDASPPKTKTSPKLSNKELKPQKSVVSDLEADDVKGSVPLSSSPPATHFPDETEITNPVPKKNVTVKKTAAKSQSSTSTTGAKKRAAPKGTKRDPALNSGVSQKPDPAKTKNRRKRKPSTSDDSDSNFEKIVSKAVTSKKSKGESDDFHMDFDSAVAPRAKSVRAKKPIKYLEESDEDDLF

Legend:
[1] = biological target: T1, DNA topoisomerase II covalent complexes with MLL and other sequences in CD34+ cells (Homo sapiens, UniProt P11388); experiment: Immunoaffinity purification, DOP amplification and real-time PCR of DNA topoisomerase IIα-bound DNA; assay type: cell-based
T1 construct: endogenous in cells; host or cells: primary human bone marrow CD34+ cells, expanded ex vivo

[2] = biological target: human DNA topoisomerase IIα (Homo sapiens, UniProt P11388); experiment: DNA topoisomerase II in vitro cleavage assay

COc1cc([C@@H]2c3cc4c(cc3[C@@H](O[C@@H]3O[C@@H]5CO[C@@H](C)O[C@H]5[C@H](O)[C@H]3O)[C@H]3COC(=O)[C@H]23)OCO4)cc(OC)c1O [etoposide]
real-time PCR products, MLL intron 7-exon 8 amplicon [1]: real-time PCR products that were detected | real-time PCR products, GAPDH amplicon ([1]; 100 μM, 2 hours): No products were detected | real-time PCR products, MLL intron 8-exon 9 amplicon (MLL bcr positions 6784 to 6851) ([1]; 100 μM, 2 hours): products were detected | DNA topoisomerase II covalent complexes proximal to MLL exon 25 amplicon ([1]; 100 μM, 2 hours, no product in untreated cells): induced DNA-DNA topoisomerase II covalent complexes | cleavage at AF-4 intron 3 position 7126 relative to the strongest enzyme-only cleavage in the substrate (position 7114) ([2]; 20 μM, AF-4 intron 3 substrate): 3.2 fold | enzyme-only cleavage at GAS7 position 1238 relative to cleavage with etoposide ([2]; etoposide 20 μM, GAS7 substrate 1129 to 1440): 0.44 fold | enzyme-only cleavage at MLL bcr position 4675 relative to cleavage with etoposide ([2]; etoposide 20 μM, MLL intron 8 substrate 4589 to 4768): 0.27 fold
